The record followed here is patent US9242970B2 (ACTELION PHARMACEUTICALS LTD., priority 2010, dated 2016).

By UniProt entry, the sequences of proteins in these tests, tags left out.
UniProt O43613, whole entry: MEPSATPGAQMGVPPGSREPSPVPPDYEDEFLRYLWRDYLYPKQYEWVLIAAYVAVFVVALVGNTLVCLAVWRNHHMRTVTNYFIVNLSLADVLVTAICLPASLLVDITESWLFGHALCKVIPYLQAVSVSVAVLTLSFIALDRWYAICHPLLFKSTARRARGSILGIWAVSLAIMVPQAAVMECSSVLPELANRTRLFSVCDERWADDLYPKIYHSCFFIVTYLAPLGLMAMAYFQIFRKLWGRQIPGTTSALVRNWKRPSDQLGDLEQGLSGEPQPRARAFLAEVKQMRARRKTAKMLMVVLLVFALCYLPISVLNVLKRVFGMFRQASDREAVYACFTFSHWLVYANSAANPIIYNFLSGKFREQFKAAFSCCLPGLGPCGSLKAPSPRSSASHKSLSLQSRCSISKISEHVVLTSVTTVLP
UniProt O43614, whole entry: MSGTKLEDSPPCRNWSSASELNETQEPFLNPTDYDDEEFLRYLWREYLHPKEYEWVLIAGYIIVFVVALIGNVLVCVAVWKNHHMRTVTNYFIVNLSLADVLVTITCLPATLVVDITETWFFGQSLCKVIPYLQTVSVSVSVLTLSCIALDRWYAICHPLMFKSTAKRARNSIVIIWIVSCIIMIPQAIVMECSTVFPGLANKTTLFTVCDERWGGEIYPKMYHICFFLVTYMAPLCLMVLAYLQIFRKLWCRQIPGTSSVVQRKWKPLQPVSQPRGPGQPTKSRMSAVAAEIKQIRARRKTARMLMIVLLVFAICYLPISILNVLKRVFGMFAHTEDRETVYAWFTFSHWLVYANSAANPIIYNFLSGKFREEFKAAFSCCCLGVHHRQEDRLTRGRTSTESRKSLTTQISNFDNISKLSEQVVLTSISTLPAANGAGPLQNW

For one assay, the target named is human orexin-1 receptor (Homo sapiens (Human), UniProt O43613). Kind of assay: In vitro assay: intracellular calcium measurements (FLIPR), antagonistic activity. It is filed as cell-based. As to conditions: CHO cells, 3 nM orexin-A, compound incubation 120 min; marked values are geometric means of n = 2-6; read-out: IC50 OX1. How it is done: (§1) In Vitro Assay: Intracellular Calcium Measurements:
(§2) Chinese hamster ovary (CHO) cells expressing the human orexin-1 receptor and the human orexin-2 receptor, respectively, are grown in culture medium (Ham F-12 with L-Glutamine) containing 300 µg/ml G418, 100 U/ml penicillin, 100 µg/ml streptomycin and 10% heat inactivated fetal calf serum (FCS). The cells are seeded at 20,000 cells/well into 384-well black clear bottom sterile plates (Greiner). The seeded plates are incubated overnight at 37° C. in 5% CO2.
(§3) Fluorescence is measured for each well at 1 second intervals, and the height of each fluorescence peak is compared to the height of the fluorescence peak induced by 3 nM orexin-A with vehicle in place of antagonist. […] Optimized conditions were achieved by adjustment of pipetting speed and cell splitting regime. The calculated IC50 values may fluctuate depending on the daily cellular assay performance. Fluctuations of this kind are known to those skilled in the art.
For orientation: Calcium assays in cells follow changes in intracellular calcium, usually with a dye or a luminescent sensor.
Take `COc1cccc(OC)c1[C@@H]1C[C@H](F)C(=O)N1Cc1ccc2oc3ccccc3c2c1` (racemic) [Example 367, rac-(3S*,5S*)-1-(dibenzo[b,d]furan-2-ylmethyl)-5-(2,6-dimethoxyphenyl)-3-fluoropyrrolidin-2-one]: the IC50 (as a rule, the concentration needed to halve the response being measured) came to 0.003 µM. Same read-out and setting: in the case of `COc1cccc(F)c1[C@@H]1C[C@H](F)C(=O)N1Cc1ccc2oc3ccccc3c2c1` (racemic) [Example 406, rac-(3S*,5S*)-1-(dibenzo[b,d]furan-2-ylmethyl)-3-fluoro-5-(2-fluoro-6-methoxyphenyl)pyrrolidin-2-one] it was 0.081 µM; in that of `COc1cccc(F)c1[C@@H]1C[C@H](Cl)C(=O)N1Cc1ccc2oc3ccccc3c2c1` (racemic) [Example 408, rac-(3S*,5S*)-3-chloro-1-(dibenzo[b,d]furan-2-ylmethyl)-5-(2-fluoro-6-methoxyphenyl)pyrrolidin-2-one], 0.086 µM.

Still in this assay, the particulars now being: CHO cells, 3 nM orexin-A, compound incubation time of 10 min; marked values are geometric means of n = 2-6; read-out: IC50 OX1.
For the compound `COc1cccc(OC)c1[C@@H]1C[C@H](O)C(=O)N1Cc1ccc(OC(F)(F)F)cc1` (racemic) [Example 253, rac-(3S*,5S*)-5-(2,6-dimethoxyphenyl)-3-hydroxy-1-(4-(trifluoromethoxy)benzyl)pyrrolidin-2-one], the IC50 is 0.899 µM. Turning to `COc1cccc(OC)c1[C@@H]1C[C@@H](F)C(=O)N1Cc1ccc(OC(F)(F)F)cc1` (racemic) [Example 255, rac-(3R*,5S*)-5-(2,6-dimethoxyphenyl)-3-fluoro-1-(4-(trifluoromethoxy)benzyl)pyrrolidin-2-one], the IC50 worked out at 0.299 µM. Regarding `COc1cccc(OC)c1[C@@H]1C[C@@H](O)C(=O)N1Cc1ccc(OC(F)(F)F)cc1` (racemic) [Example 258, rac-(3R*,5S*)-5-(2,6-dimethoxyphenyl)-3-hydroxy-1-(4-(trifluoromethoxy)benzyl)pyrrolidin-2-one], the half-maximal inhibitory concentration (IC50) was 0.927 µM. On to `COc1cccc(OC)c1[C@@H]1C[C@H](F)C(=O)N1Cc1ccc(OC(F)(F)F)cc1` (racemic) [Example 260, rac-(3S*,5S*)-5-(2,6-dimethoxyphenyl)-3-fluoro-1-(4-(trifluoromethoxy)benzyl)pyrrolidin-2-one], for which the concentration for half-maximal inhibition (IC50) turned out to be 0.075 µM.

A further assay deals with human orexin-2 receptor (Homo sapiens (Human), UniProt O43614). The assay is described as above. As to conditions: CHO cells, 3 nM orexin-A, compound incubation 120 min; marked values are geometric means of n = 2-6; read-out: IC50 OX2. Type of assay: cell-based. The protocol: as §1, §2, §3
In the case of `O=C1[C@@H](Cl)C[C@@H](c2cccc3c2OCCO3)N1Cc1ccc(OC(F)(F)F)cc1` (racemic) [Example 307, rac-(3S*,5S*)-3-chloro-5-(2,3-dihydrobenzo[b][1,4]dioxin-5-yl)-1-(4-(trifluoromethoxy)benzyl)pyrrolidin-2-one], the IC50 was 0.397 µM. Take `COc1cc(F)ccc1[C@@H]1C[C@@H](Cl)C(=O)N1Cc1ccc(OC(F)(F)F)cc1` (racemic) [Example 323, rac-(3R*,5S*)-3-chloro-5-(4-fluoro-2-methoxyphenyl)-1-(4-(trifluoromethoxy)benzyl)pyrrolidin-2-one]: the IC50 is 2.15 µM.

On to `COc1cccc(OC)c1C1CCCC(=O)N1Cc1ccc2ccccc2n1` (stereo not shown) [Example 4, 6-(2,6-dimethoxyphenyl)-1-(quinolin-2-ylmethyl)piperidin-2-one], for which the concentration for half-maximal inhibition (IC50) stood at 0.058 µM.
